# Yeast mating assay B: variants of the scFv Ab-14

From the AlphaSeq antibody data of Li et al. 2023 (doi:10.1038/s41467-023-39022-2), copy in the FLAb collection.

The target is the same throughout: PDVDLGDISGINAS, from the HR2 region of SARS-CoV-2 spike.

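Phage display of a naive human antibody library on the peptide gave the parent. These sequences belong to a second round, designed from the earlier measurements on random variants of the parent. Group labels follow the data file (Ctrl: baseline library sampled from a position-specific scoring matrix, with some repeated check sequences; Rand: our label for a block that the file lists under HC and that is probably the random mutants of the ten best first-round binders; En: ensemble of fine-tuned language models; GP: Gaussian process model; GPLM: also part of the Gaussian process libraries; HC: hill climbing; Gen: genetic algorithm; Gibbs: Gibbs sampling; a sequence that several methods proposed may carry one label only). The assay is AlphaSeq: two haploid yeast populations carry antibody and antigen on their surface. Pairs that bind mate more often; barcode pairs of the diploids are counted by sequencing. Each replicate has its own calibration line, from reference interactions of the BCL2 family. The assay was run in six technical replicates.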

The variants keep the light chain, the linker and the frameworks of Ab-14 (scFv order VH, three GGGGS repeats, VL).
VH: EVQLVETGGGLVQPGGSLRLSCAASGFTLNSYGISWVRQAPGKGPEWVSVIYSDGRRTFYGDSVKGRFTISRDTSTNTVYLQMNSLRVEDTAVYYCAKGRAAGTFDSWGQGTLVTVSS
VL: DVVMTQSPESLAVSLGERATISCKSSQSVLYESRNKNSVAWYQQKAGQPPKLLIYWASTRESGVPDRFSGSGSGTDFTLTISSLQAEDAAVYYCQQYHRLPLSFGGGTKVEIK

The parent's heavy chain CDRs are GFTLNSYGIS, VIYSDGRRTFYGDSVK, GRAAGTFDS; each variant's own CDRs replace them letter for letter. Each Kd is an estimate from the mating assay, the geometric mean of the replicates in which the pair was seen; lower is stronger. Where no diploid with the target was found in any replicate, the entry reads "nd": below detection, most likely a poor binder, though not proof of it. Of ten entries with the parent sequence, four were seen in most replicates (averages 2.2 nM to 240 nM), three in one and three in none, so single entries are noisy.

Kd	seen in	CDR-H1	CDR-H2	CDR-H3	group
240 pM	6/6	GFDLNEYGIS	VIYADGRRTFYTDSVK	GNNAGTFDS	En_HC
nd	0/6	GFDLNEYGIS	VIYADGRRTFYTDSVK	GEVAGTFDN	En_HC
16 nM	6/6	GFTLNSYGIS	VIYSDGRRTFYDDSVK	GQEAGTFDE	GP_HC
nd	0/6	GFDLNSYGIS	VIYSDGRRTFYGDSVK	GRAAGHFKS	GPLM_HC
7.9 nM	6/6	GFTLESYGIS	VIYSDGKRTFYSDSVK	GRAAGTFDS	GPLM_HC
390 pM	6/6	GFDLNEYGIS	VIYADGVRTAYVDSVK	GNVAGTFDI	En_Gen
nd	0/6	GFDLTEYGIS	VIYADGRRTQYSDSVK	GLNGGIIVV	En_Gibbs
770 pM	6/6	GFDLNEYGIS	VIYADGQRTFYADDVK	GNVAGTFDV	En_Gen
430 pM	5/6	GFDLDEYGIS	VIYADGMRTAYADSVK	GNEAGTFDL	En_Gen
1.5 nM	6/6	GFTLESYGIS	VIYADGRRTFYGDSVK	GQAAGTFSS	GP_HC
25 nM	1/6	GFTLNSYGIS	VIYSDGRRTFYGDSVK	GKIAGTFDS	GPLM_Gen
nd	0/6	GFDLTEYGIS	VIYADGRRTAYQDSVK	GLNGGMLVV	En_Gibbs
5.8 nM	6/6	GFQLNEYGIS	VIYSDGRRTFYHDSVK	GRHAGTFDS	GP_Gibbs
200 nM	1/6	GFDLNEYGIS	VIYADGRRTAYSDSVK	GGNAGFFDQ	En_HC
nd	0/6	GFTLNDYGIR	VIYSDGRNTQYIDSVK	GRAARTFDS	Rand
2.8 nM	6/6	GFPLNDYGIS	VIYSDGRRTFYGDSVK	GRTAGTFDS	GPLM_Gen
5.8 nM	6/6	GFDLDEYGIS	VIYADGTRTAYADSVK	GENAGTFDV	En_Gen
1.9 nM	6/6	GFELNSYGIS	VIYSDGRRTFYLDSVK	GRTAGTFDS	GPLM_Gen
nd	0/6	GFVLNEYGIS	VIYSDGRRTFYGDSVK	GRAAGTFDS	GPLM_Gen
nd	0/6	GFDANSYGIS	VIYSDGRMTFYGDSVK	GRAAGWFTS	Rand
6.7 nM	3/6	YFDLNMYGIS	VIYSDGRRTFYGDSVK	GRTAGTFDS	GP_Gibbs
970 nM	1/6	GFDLQEYGIS	VIYADGARKSYTNSVK	GVWGGTMDV	En_Gibbs
2.7 nM	6/6	GFELNSYGIS	VIYSDGKRTFYADSVK	GRNAGTFDS	GP_Gen
nd	0/6	GFTLNDYGIS	VIYSDGRRTFYGDSVK	GKTAGTFDS	GPLM_Gen
35 nM	6/6	GFTLNSYGIS	VIYSDGRRTFYHDSVK	GREAGTFDT	GPLM_Gen
nd	0/6	KFTLNEYGIS	VIYSDGRRTFYTDSVK	GRATGTFDS	Ctrl
9.2 nM	6/6	GFSLNSYGIS	VIYSDGRRTFYADSVK	GRTAGTFDW	GPLM_Gen
620 pM	4/6	GFDLNEYGIS	VIYADGRRTAYVDSVK	GEVAGTFDV	En_Gen
1.3 nM	6/6	GFELNDYGIS	VIYSDGRRTFYCDSVK	GRVAGTFDS	GP_Gibbs
24 nM	5/6	GFNLNDYGIS	VIYSDGRRTFYGDSVK	GRAAGTFDS	Ctrl
570 pM	6/6	GFELNSYGIS	VIYADGRRTFYGDSVK	GRIAGTFDS	GP_Gen
390 nM	6/6	GETLNMYGIS	VIYSDGRRTFYGDSVK	GTAAGTFDS	Ctrl
180 pM	6/6	GFDLNEYGIS	VIYADGMRTAYSDDVK	GNQAGTFDM	En_Gen
nd	0/6	GFTLNSYGIS	VIYSDGRRTFYGPSVK	GRAAGTFDS	Ctrl
nd	0/6	GFTLNEYGIS	VIYSDGIRTFYGDSVK	GRQAGTFIS	GPLM_HC
850 pM	6/6	GFDLNSYGIS	VIYSDGKRTFYGDMVK	GRTAGTFDS	GP_Gen
3.0 nM	6/6	GFDLNSYGIS	VIYSDGKRTFYGDSVK	GRVAGTFDT	GP_Gibbs
1.9 nM	6/6	GFSLNSYGIS	VIYSDGRRTFYVDDVK	GQAAGTFDS	GPLM_Gen
nd	0/6	GFTLNSYGIS	VDYSDGRRTQYIDSVK	GHAIATFDS	Ctrl
45 nM	6/6	GFLLNDYGIS	VIYSDGRRTFYKDSVK	GRNAGTFDS	GP_HC
nd	0/6	GFSLNSYGIS	VIYSDGRRTFYGDSVK	GRAAGTFNS	Ctrl
660 pM	6/6	GFDLNEYGIS	VIYADGMRTAYTDSVK	GNEAGTFDS	En_HC
390 pM	6/6	GFDLNEYGIS	VIYADGKRTAYADSVK	GEEAGTFDV	En_Gen
2.5 nM	6/6	GFDLNEYGIS	VIYADGKRTAYADSVK	GGTAGTFDV	En_Gen
3.3 nM	6/6	GFDLNEYGIS	VIYADGRRTFYTDSVK	GNMAGTFLV	En_HC
nd	0/30	GFTVNSYGIS	VIYSDGRRTFYGDSVK	GRATGTFDS	Ctrl
130 nM	1/6	TFTLNEYGIS	VIHSDGRGTFYTDSVK	GRFAGTFDS	Rand
510 pM	6/6	GFDLNEYGIS	VIYADGVRTAYADNVK	GNVAGTFDM	En_Gen
1.5 nM	6/6	GFTLNSYGIS	VIYSDGVRTFYIDSVK	GNAAGTFDS	GPLM_Gen
nd	0/6	GFGLSEYGIS	VIYADGMRTSYDNSIK	GALAGTFDE	En_Gibbs

4 of these entries, quoted again:

CDR-H1	CDR-H2	CDR-H3	group	Kd	seen in
GFTLNSYGIS	VIYSDGRRTFYGPSVK	GRAAGTFDS	Ctrl	nd	0/6
GFSLNSYGIS	VIYSDGRRTFYVDDVK	GQAAGTFDS	GPLM_Gen	1.9 nM	6/6
TFTLNEYGIS	VIHSDGRGTFYTDSVK	GRFAGTFDS	Rand	130 nM	1/6
GFDLTEYGIS	VIYADGRRTAYQDSVK	GLNGGMLVV	En_Gibbs	nd	0/6

Empty control strains, which show no peptide, gave a signal in 1% of pairings with all heavy chain designs; the median was 120 nM and 95% of these signals were weaker than 7.0 nM. No background was subtracted. In the paper, a design with two or fewer of six values counts as a poor binder. Where one sequence has several entries in the source, the replicates are pooled. Values of this round are not directly comparable with the first-round values of the same sequences.